{
  "source": "patent US9522128B2",
  "about": "(FUNDACION PARA LA INVESTIGACION BIOMEDICA DEL HOSPITAL …, priority 2008, dated 2016)",
  "test_system": "primary cultures of proximal tubular cells (PTCs)",
  "test": "Cell growth dynamics in primary culture of proximal tubular cells",
  "conditions": "post hoc analysis; cyclosporin 1 μg/mL and 10 μg/mL; tacrolimus (FK-506)",
  "data": [
    {"substance": "Cyclosporin A", "values": [
      {"measurement": "day of culture from which cell growth is significantly decreased compared to control", "value": "≥ 8", "unit": "days"}
    ]}
  ]
}
